Literature values, collected in patent EP4818190A1, “TRISACCHARIDE LINKER, LINKER-PAYLOAD COMPRISING TRISACCHARIDE LINKER, AND GLYCAN CHAIN-REMODELED ANTIBODY-DRUG CONJUGATE, AND PREPARATION METHODS THEREFOR AND USES THEREOF” (priority 2023, dated 2025).

Columns and labels:
[1] = system: HER2-positive breast cancer; settings: patients who received at least two targeted HER2 therapies and exhibited drug resistance; cited from earlier work
[2] = system: metastatic breast cancer with low HER2 expression; settings: as compared to standard chemotherapies; cited from earlier work

With Enhertu as the substance, how does the overall response rate [1] read?
The overall response rate was 60.3%.

And the “reduction of the risk of death or tumor progression” value [2]?
Its value is 50%.
